## Yeast mating assay 1: variants of the scFv Ab-14

All variants were tested on one target, the spike HR2 peptide PDVDLGDISGINAS (SARS-CoV-2).

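Phage display of a naive human antibody library on the peptide gave the parent. Variants in AAYL49 differ from the parent at up to three CDR positions; double and triple changes were sampled at random. The assay is AlphaSeq: two haploid yeast populations carry antibody and antigen on their surface. After mating in shaken culture at 30 °C for 16 h, diploids were selected and their barcode pairs sequenced. Read counts were normalised to the haploid input and turned into Kd by a linear fit to BCL2-family pairs of known affinity, for each replicate. The assay was run in three technical replicates.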

Ab-14 is the parent antibody, in scFv form: VH, then three GGGGS repeats, then VL. The light chain is unchanged in all variants.
VH: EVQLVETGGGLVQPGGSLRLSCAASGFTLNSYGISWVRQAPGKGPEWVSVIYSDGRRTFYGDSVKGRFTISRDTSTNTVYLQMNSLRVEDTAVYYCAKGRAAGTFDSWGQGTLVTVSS
VL: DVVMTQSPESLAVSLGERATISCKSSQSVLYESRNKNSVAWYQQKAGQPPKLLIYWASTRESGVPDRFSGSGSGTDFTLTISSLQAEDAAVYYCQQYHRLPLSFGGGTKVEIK

Each variant is given by its three heavy chain CDRs, as the data file delimits them; those of the parent are GFTLNSYGIS, VIYSDGRRTFYGDSVK, GRAAGTFDS.
Numbers give log10(Kd / nM), so 0 is 1 nM and 3 is 1 µM. Smaller is tighter.
A pair that was not seen in that replicate is written "nd"; this usually means weak binding, but a binder can also be missed.
Empty control strains, which show no peptide, gave a signal in 15% of pairings with library AAYL49; the median was 4.06 and 95% of these signals were weaker than 2.83. No background was subtracted. Also given: how often the same scFv was detected with the empty control strains.
In this assay the parent's reference entry averaged 0.65; its copy inside this library read 4.11 (one replicate of three).

The variant GFTLNSYGIS | GIYSDGRRTFYRDSVK | GRGAGTFDS gave 3.22, 2.58, nd (controls 1 of 9).
The variant GFTLNSYGIS | VDYSDGRRTFYGDSVG | GRAAGTFDT gave nd, 1.86, nd (controls 1 of 9).
The variant GFTLNSYGIS | VIKSDGSRTFYGDSVK | GRAAGTFYS gave nd, nd, nd (controls 0 of 9).
The variant GFCLNSYGAS | VIYSDGRRTFYGDSVK | TRAAGTFDS gave nd, nd, 3.30 (controls 1 of 9).
The variant GFTLNSYGIK | VMYSDPRRTFYGDSVK | GRAAGTFDS gave nd, nd, nd (controls 0 of 9).
The variant GFNLNSYGIS | VIYRDGRRTFYGDSVK | GRAFGTFDS gave nd, nd, nd (controls 2 of 9).
The variant GFTLNSYGIS | VIYSDGRRTFYGDSVK | FRAKGPFDS gave 4.15, nd, nd (controls 2 of 9).
The variant GFTLNSYGCS | VIYSDGRRTFYKDMVK | GRAAGTFDS gave nd, 3.71, 4.36 (controls 2 of 9).
The variant GFTLNSYYIS | VIYSDGRNTFYGDSVK | GRAAGTFPS gave 3.50, nd, nd (controls 1 of 9).
The variant GFTLNSYGIS | YIYSDGRRTFYGDWDK | GRAAGTFDS gave nd, 4.54, 4.63 (controls 2 of 9).
The variant GFTLNSYGIS | VIYSWGPRTFYGDSVK | GRQAGTFDS gave 4.37, nd, 4.97 (controls 1 of 9).
The variant GCTLNSSGIS | VIYSDGRRTFYGDSVK | GRAAGTFAS gave nd, nd, nd (controls 3 of 9).
The variant GFTLNSYGIS | VMYSDGRRTFYGDSVK | GRATITFDS gave nd, nd, nd (controls 1 of 9).
The variant GFTANSYGIK | VIYSDGRRTFYHDSVK | GRAAGTFDS gave 4.65, nd, nd (controls 3 of 9).
The variant GFVLNSYGIS | VIYSDGRRTFYNDSVK | GRAAGTFTS gave 3.70, nd, nd (controls 3 of 9).
The variant GFTLNEYGIS | VISSDGRRTFYGHSVK | GRAAGTFDS gave 3.08, 2.72, 3.44 (controls 4 of 9).
The variant GFTLNSYGIS | VCYSDGRITFYGDSVK | GRAQGTFDS gave 5.19, 5.36, nd (controls 5 of 9).
The variant GFTLNSYGIS | VIYSDGRMTFYGDSVK | GRAAGTFDS gave nd, nd, nd (controls 1 of 9).
The variant GFTLNSYNIS | VIYSDGRRTLYGDSVK | GSAAGTFDS gave nd, 3.43, nd (controls 3 of 9).
The variant GFTLRSYFIS | VIYSDGRRTFWGDSVK | GRAAGTFDS gave nd, nd, nd (controls 1 of 9).
The variant GFTLNSRGIS | VIYSDGFRTFYGDSVK | GIAAGTFDS gave 4.80, 3.85, 4.18 (controls 1 of 9).
The variant GFTLNSYGIS | VIYSDGRRTFYGDAVK | GRAAGTFDS gave 0.97, 1.03, 1.15 (controls 0 of 9).
The variant GFTLNSYGIS | VIYSDGRWTFYGWSVK | GRNAGTFDS gave nd, nd, 3.21 (controls 1 of 9).
The variant GFTLNSYGIS | VIYSDGRSSFYGDSVK | GRAALTFDS gave nd, nd, nd (controls 0 of 9).
The variant GFTLNSYGSS | VIYDEGRRTFYGDSVK | GRAAGTFDS gave nd, nd, nd (controls 1 of 9).
The variant GFTLNSYGIS | VIYSDGRRTFYWDSVA | GRAAGTFDG gave 6.62, 3.35, nd (controls 5 of 9).
The variant GFTLNSYGIS | VIYSDGRRTMYGDSVK | GRAAGTFAV gave 0.95, 1.23, 1.25 (controls 1 of 9).
The variant GFTLNSRGIS | VIYSDRRRTFYGDSTK | GRAAGTFDS gave nd, 4.14, 4.52 (controls 2 of 9).
The variant GFMLNSYGIS | VIYSDGRHTFYGDSVK | GRAAGTFDS gave nd, nd, nd (controls 0 of 9).
The variant GFTLNSYGVS | VIYSDGRRTFYGDSVK | YPAAGTFDS gave 2.34, 2.55, 2.44 (controls 3 of 9).
The variant GFTLNSYGIS | VIYSDGRRTFYSDSVK | GRAAGIFYS gave 0.52, 0.76, 0.78 (controls 2 of 9).
The variant GFTLNSYGIS | VIPCDGRRTFYGDSVK | GRTAGTFDS gave nd, nd, nd (controls 2 of 9).
The variant GITLNSYGIS | VISSDGRRTDYGDSVK | GRAAGTFDS gave nd, nd, nd (controls 0 of 9).
The variant GFTLNSYGIS | VAYSDGRRTFYGDSVK | ARAAGTFDH gave nd, 3.53, nd (controls 3 of 9).
The variant GFTLNSSGIS | VIYSKGRRTFYGDSVK | GRAAGHFDS gave nd, nd, nd (controls 4 of 9).
The variant GSTLNSYGIS | CIYSDGRRDFYGDSVK | GRAAGTFDS gave nd, nd, nd (controls 0 of 9).
The variant GFTMNSYGIS | VIYSDGRRTFYGDAVK | QRAAGTFDS gave nd, nd, nd (controls 0 of 9).
The variant GFTLNGYGIS | VIQSDGKRTFYGDSVK | GRAAGTFDS gave nd, nd, nd (controls 0 of 9).
The variant GYTLNSYSIS | VIHSDGRRTFYGDSVK | GRAAGTFDS gave nd, nd, nd (controls 5 of 9).
The variant GFTLNSYGIS | VIYSDCRRTFYGDSVK | GPAAGTFDS gave nd, nd, nd (controls 0 of 9).
The variant GFTLNSYGIS | VIYSTGRRTFYGDSVK | GVAAGTKDS gave nd, nd, nd (controls 0 of 9).
The variant GFTLNSYGIS | VIYSDNRRTFYGDSVK | GRAAGTFDS gave 3.75, nd, nd (controls 4 of 9).
The variant SFTLNSYGIM | VIYSDGRRTFYGDSVK | GRAAGTFDS gave nd, 4.07, nd (controls 1 of 9).
The variant GFTLNSYGIS | VIYSDGRRLFYGNSVK | GRACGTFDS gave nd, nd, nd (controls 1 of 9).
The variant GFTLNSYGIS | VIYSDSRRTFEGCSVK | GRAAGTFDS gave nd, nd, nd (controls 0 of 9).
The variant GFTLNRYGIS | VIYSDGRRTFYGDSVK | GRAAQTFGS gave nd, nd, nd (controls 3 of 9).
The variant GFTLVSYGIS | VIYSDGRRTFYGDSVK | IMAAGTFDS gave 2.06, 1.81, 2.17 (controls 0 of 9).
The variant GFTLNSYGIS | VIYSDGRRTFGGDHVK | LRAAGTFDS gave 4.22, 4.52, 5.96 (controls 5 of 9).
The variant GFTLNSYGIN | VIYSDGYRTVYGDSVK | GRAAGTFDS gave nd, nd, nd (controls 1 of 9).

Top 6 of the variants detected in all replicates, tightest first:

{"CDR-H1": "GFTLNSYGIS", "CDR-H2": "VIYSDGRRTFYSDSVK", "CDR-H3": "GRAAGIFYS", "log10 Kd, replicates": "0.52, 0.76, 0.78", "signal with controls": "2 of 9"}
{"CDR-H1": "GFTLNSYGIS", "CDR-H2": "VIYSDGRRTFYGDAVK", "CDR-H3": "GRAAGTFDS", "log10 Kd, replicates": "0.97, 1.03, 1.15", "signal with controls": "0 of 9"}
{"CDR-H1": "GFTLNSYGIS", "CDR-H2": "VIYSDGRRTMYGDSVK", "CDR-H3": "GRAAGTFAV", "log10 Kd, replicates": "0.95, 1.23, 1.25", "signal with controls": "1 of 9"}
{"CDR-H1": "GFTLVSYGIS", "CDR-H2": "VIYSDGRRTFYGDSVK", "CDR-H3": "IMAAGTFDS", "log10 Kd, replicates": "2.06, 1.81, 2.17", "signal with controls": "0 of 9"}
{"CDR-H1": "GFTLNSYGVS", "CDR-H2": "VIYSDGRRTFYGDSVK", "CDR-H3": "YPAAGTFDS", "log10 Kd, replicates": "2.34, 2.55, 2.44", "signal with controls": "3 of 9"}
{"CDR-H1": "GFTLNEYGIS", "CDR-H2": "VISSDGRRTFYGHSVK", "CDR-H3": "GRAAGTFDS", "log10 Kd, replicates": "3.08, 2.72, 3.44", "signal with controls": "4 of 9"}

Data: MIT Lincoln Laboratory AlphaSeq set, Engelhart et al. 2022, doi:10.1038/s41597-022-01779-4, as distributed in FLAb.